This is a selection; strong and weak results do not stand in their true shares. Some of these compounds have results that are not shown, active ones among them. Active and inactive are the calls of the source.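 How the source made its calls: active means inhibition above the mean inhibition of all tested compounds plus 3 SD, set per campaign (cut at about 40% in these data); inactive means the rest.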
Molecular target: Induced myeloid leukemia cell differentiation protein Mcl-1 (Homo sapiens) (UniProt Q07820)
Assay: MCL1-BIM peptide interaction disruptors – biochemical, fluorescence polarization, primary screen (AID 2057);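 further: 0% = DMSO wells and 100% = unlabeled Bim-BH3 peptide control; higher means more loss of mP so more displacement of Bim peptide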
Details: GST-MCL1 / FITC-Bim-BH3 fluorescence polarization; at 10.9 µM; stronger effect = higher value

Sequences of proteins named here, by UniProt entry; tags and fusion partners are left off.
UniProt Q07820, whole entry: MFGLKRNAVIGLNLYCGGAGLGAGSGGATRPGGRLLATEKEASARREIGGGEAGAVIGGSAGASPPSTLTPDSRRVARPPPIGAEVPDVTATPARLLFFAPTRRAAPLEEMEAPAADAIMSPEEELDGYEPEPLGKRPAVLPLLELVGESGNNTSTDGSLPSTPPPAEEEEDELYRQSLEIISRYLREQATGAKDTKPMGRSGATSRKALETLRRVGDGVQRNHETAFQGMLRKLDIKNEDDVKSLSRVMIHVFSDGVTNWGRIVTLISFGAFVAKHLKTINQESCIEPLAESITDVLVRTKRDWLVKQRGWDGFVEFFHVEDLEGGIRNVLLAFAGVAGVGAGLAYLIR

| Compound | inhibition |
| --- | --- |
| Cc1ccccc1C(=O)NCC1(N2CCCCC2)CCCCC1 | inactive: -3.45% |
| CN(C)C1CCCC1OC(=O)C(O)(c1ccccc1)c1ccccc1 (centres undefined) | inactive: 1.43% |
| CN(C)c1ccc(C(=O)NCC2(N(C)C)CCCCC2)cc1 | inactive: 8.11% |
| COc1ccc(C(=O)NCC2(N(C)C)CCCCC2)cc1 | inactive: -4.5% |
| Cc1cc(C(=O)NCC2(N3CCCCC3)CCCCC2)ccc1[N+](=O)[O-] | inactive: -1.33% |
| CCN1CCCC(OC(=O)C2(O)c3ccccc3C=Cc3ccccc32)C1 (centres undefined) | inactive: 11.4% |
| O=C(NCC1(N2CCCCC2)CCCCC1)c1cccc(Br)c1 | inactive: 2.87% |
| C=CCN1CCN(CCOC(=O)C(O)(c2ccccc2)c2ccccc2)CC1 | inactive: -0.97% |
| O=C(NCC1(N2CCCCC2)CCCCC1)c1cc(F)c(F)cc1Cl | inactive: 1.72% |
| CN1[C@@H]2CC[C@H]1CC(OC(=O)C(O)(c1ccccc1)c1ccccc1)C2 (some centres undefined) | inactive: 0.83% |
| O=C(NCC1(N2CCCCC2)CCCCC1)c1cc([N+](=O)[O-])ccc1Cl | inactive: 4.72% |
| Cc1ccc(C(=O)NCC2(N3CCCCC3)CCCCC2)cc1 | inactive: -5.04% |
| CCN(CC)CC(C)C(C)OC(=O)C(O)(c1ccccc1)c1ccccc1 (centres undefined) | inactive: -4.71% |
| COc1cc(SC)ccc1C(=O)NCC1(N(C)C)CCCCC1 | inactive: 8.3% |
| CC(C)N1C(=O)CC2(CCN(CCOC(=O)C(O)(c3ccccc3)c3ccccc3)CC2)C1=O | inactive: 8.07% |
| O=C(OC1CN2CCC1CC2)C(CO)(c1ccccc1)c1ccccc1 (centres undefined) | inactive: -0.41% |
| CC(C)Oc1ccc(C(=O)NCC2(N(C)C)CCCCC2)cc1 | inactive: -1.94% |
| CN(C)c1cccc(C(=O)NCC2(N(C)C)CCCCC2)c1 | inactive: -0.06% |
| COc1ccc(Br)c(C(=O)NCC2(N3CCCCC3)CCCCC2)c1 | inactive: -2.99% |
| COc1cc(C(=O)NCC2(N(C)C)CCCCC2)c([N+](=O)[O-])cc1OC | inactive: 5.18% |
| CN(C)C1(CNC(=O)c2ccc(Br)cc2)CCCCC1 | inactive: -6.38% |
| O=C(NCC1(N2CCCCC2)CCCCC1)c1cccc(Cl)c1 | inactive: 2.46% |
| COc1cccc(C(=O)NCC2(N3CCCCC3)CCCCC2)c1 | inactive: -1.72% |
| COc1ccc(Cl)cc1C(=O)NCC1(N(C)C)CCCCC1 | inactive: 11.6% |

Source: PubChem BioAssay AID2057 (The Scripps Research Institute Molecular Screening Center, 2009)
